# Experimental data reported in patent US7528274B2, “Acylthiols and component thiol compositions as anti-HIV and anti-retroviral agents” (The United States of America as represented by the …, priority 2001, dated 2009).
# Key:
# Type in all cases: cell-based
# HIV-1 (RoJo) = settings: HIV-1 (RoJo/PBMCs)
# From the text: (§1) One exemplary means to determine antiviral activity is with CEM-SS cells and virus (e.g., HIV-1RF) (MOI=0.01) using the XTT {2,3-bis[2-methoxy-4-nitro-5-sulfophenyl]-5- -[(phenylamino)carbonyl]-2H-tetrazolium hydroxide} cytoprotection assay, as described by Rice (1993) Proc. Natl. Acad. Sci. USA 90: 9721-9724, and Rice (1997) Antimicrob. Agents & Chemother. […] Briefly, cells are infected with HIV-1RF (or other virus to be tested) in the presence of various dilutions of test compounds and controls. The cultures are incubated for seven days. […] The cell death is measured by XTT dye reduction. XTT is a soluble tetrazolium dye that measures mitochondrial energy output, similar to MTT. […] Individual assays are done in duplicate using a sister plate method. […] Compound numbers therein refer to the numbers used in FIG. 1.
# HIV-2 (Rod) = assay: XTT cytoprotection assay, HIV-2 (Rod/CEM-SS)
# From the text: as §1
# SIV (Mac 251) = assay: XTT cytoprotection assay, SIV (Mac 251)
# From the text: as §1
compound,measurement,setting,value
"Cc1cn([C@H]2C[C@H](N=[N+]=[N-])[C@@H](CO)O2)c(=O)[nH]c1=O [AZT, 3′-azido-2′, 3′-dideoxythymidine, reference compound]",Therapeutic Index,HIV-1 (RoJo),>400
same,Therapeutic Index,HIV-2 (Rod),>61
same,Therapeutic Index,SIV (Mac 251),>40
